Source: patent publication US20160002174A1, “CXCR4 Antagonists for the Treatment of Medical Disorders” (Emory University, priority 2005, published 2016)

Sequences of proteins named here, by UniProt entry; tags and fusion partners are left off.
UniProt P61073, whole entry: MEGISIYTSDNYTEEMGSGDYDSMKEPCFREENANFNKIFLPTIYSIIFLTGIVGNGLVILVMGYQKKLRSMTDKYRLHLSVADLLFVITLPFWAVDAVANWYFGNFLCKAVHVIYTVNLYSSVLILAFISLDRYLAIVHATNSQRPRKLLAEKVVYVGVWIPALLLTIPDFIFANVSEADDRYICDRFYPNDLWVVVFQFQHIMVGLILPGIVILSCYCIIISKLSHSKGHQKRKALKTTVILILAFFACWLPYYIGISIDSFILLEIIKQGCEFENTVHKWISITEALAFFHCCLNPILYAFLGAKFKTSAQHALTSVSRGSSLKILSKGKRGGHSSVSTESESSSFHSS

Biological target: CXCR4 (Homo sapiens, UniProt P61073)
Assay: Competition assays: test compounds binding to CXCR4 compared to SDF-1 (Table 2)
Conditions: competition with SDF-1 for binding to CXCR4

In the case of `Fc1cc(F)nc(NCc2ccc(CNc3nc(F)cc(F)n3)cc2)n1` [MSX-194], the IC50 is reported as 1 nM.
